Data from ChEMBL document CHEMBL1124426.

How the values were obtained:
[1] = species: Oryctolagus cuniculus; assay: Tested in rabbit for percentage analgesia after treatment with morphine
[2] = species: Mus musculus; assay: Ability of compound for reversal of morphine and analgesia was determined; 2= reversal of both morphine respiratory depression and analgesia

## C=CCN1CC[C@]23c4c5ccc(O)c4O[C@H]2C(=O)CC[C@@]3(O)[C@H]1C5
[1]
  Reversal: 50%
[2]
  Reversal type: 2
